Measurements from ChEMBL document CHEMBL4052733, “Substituted α-mercaptoketones, new types of specific neprilysin inhibitors” (Bioorg Med Chem Lett, 2017).

How the values were obtained:
Homo sapiens [1] = organism: Homo sapiens; assay: Selectivity for human NEP over NEP-2 (unknown origin)
Homo sapiens [2] = organism: Homo sapiens; assay: Selectivity for human NEP over ECE-2 (unknown origin)
Homo sapiens [3] = organism: Homo sapiens; assay: Selectivity for human NEP over ACE (unknown origin)
Homo sapiens [4] = organism: Homo sapiens; assay: Selectivity for human NEP over ECE-1 (unknown origin)

- Selectivity ratio (Homo sapiens [1]): 20
- Selectivity ratio (Homo sapiens [2]): 20
- Selectivity ratio (Homo sapiens [3]): 20
- Selectivity ratio (Homo sapiens [4]): 20
SMILES: CC(C)C[C@H](NC(=O)C(CC(=O)C(S)Cc1ccc(Br)cc1)Cc1ccccc1)C(=O)O (some centres undefined)
